Data as given in ChEMBL document CHEMBL5518240 (J Med Chem, 2024).

Chains of the proteins cited; added tags and fusions are not shown.
UniProt Q09472, whole entry: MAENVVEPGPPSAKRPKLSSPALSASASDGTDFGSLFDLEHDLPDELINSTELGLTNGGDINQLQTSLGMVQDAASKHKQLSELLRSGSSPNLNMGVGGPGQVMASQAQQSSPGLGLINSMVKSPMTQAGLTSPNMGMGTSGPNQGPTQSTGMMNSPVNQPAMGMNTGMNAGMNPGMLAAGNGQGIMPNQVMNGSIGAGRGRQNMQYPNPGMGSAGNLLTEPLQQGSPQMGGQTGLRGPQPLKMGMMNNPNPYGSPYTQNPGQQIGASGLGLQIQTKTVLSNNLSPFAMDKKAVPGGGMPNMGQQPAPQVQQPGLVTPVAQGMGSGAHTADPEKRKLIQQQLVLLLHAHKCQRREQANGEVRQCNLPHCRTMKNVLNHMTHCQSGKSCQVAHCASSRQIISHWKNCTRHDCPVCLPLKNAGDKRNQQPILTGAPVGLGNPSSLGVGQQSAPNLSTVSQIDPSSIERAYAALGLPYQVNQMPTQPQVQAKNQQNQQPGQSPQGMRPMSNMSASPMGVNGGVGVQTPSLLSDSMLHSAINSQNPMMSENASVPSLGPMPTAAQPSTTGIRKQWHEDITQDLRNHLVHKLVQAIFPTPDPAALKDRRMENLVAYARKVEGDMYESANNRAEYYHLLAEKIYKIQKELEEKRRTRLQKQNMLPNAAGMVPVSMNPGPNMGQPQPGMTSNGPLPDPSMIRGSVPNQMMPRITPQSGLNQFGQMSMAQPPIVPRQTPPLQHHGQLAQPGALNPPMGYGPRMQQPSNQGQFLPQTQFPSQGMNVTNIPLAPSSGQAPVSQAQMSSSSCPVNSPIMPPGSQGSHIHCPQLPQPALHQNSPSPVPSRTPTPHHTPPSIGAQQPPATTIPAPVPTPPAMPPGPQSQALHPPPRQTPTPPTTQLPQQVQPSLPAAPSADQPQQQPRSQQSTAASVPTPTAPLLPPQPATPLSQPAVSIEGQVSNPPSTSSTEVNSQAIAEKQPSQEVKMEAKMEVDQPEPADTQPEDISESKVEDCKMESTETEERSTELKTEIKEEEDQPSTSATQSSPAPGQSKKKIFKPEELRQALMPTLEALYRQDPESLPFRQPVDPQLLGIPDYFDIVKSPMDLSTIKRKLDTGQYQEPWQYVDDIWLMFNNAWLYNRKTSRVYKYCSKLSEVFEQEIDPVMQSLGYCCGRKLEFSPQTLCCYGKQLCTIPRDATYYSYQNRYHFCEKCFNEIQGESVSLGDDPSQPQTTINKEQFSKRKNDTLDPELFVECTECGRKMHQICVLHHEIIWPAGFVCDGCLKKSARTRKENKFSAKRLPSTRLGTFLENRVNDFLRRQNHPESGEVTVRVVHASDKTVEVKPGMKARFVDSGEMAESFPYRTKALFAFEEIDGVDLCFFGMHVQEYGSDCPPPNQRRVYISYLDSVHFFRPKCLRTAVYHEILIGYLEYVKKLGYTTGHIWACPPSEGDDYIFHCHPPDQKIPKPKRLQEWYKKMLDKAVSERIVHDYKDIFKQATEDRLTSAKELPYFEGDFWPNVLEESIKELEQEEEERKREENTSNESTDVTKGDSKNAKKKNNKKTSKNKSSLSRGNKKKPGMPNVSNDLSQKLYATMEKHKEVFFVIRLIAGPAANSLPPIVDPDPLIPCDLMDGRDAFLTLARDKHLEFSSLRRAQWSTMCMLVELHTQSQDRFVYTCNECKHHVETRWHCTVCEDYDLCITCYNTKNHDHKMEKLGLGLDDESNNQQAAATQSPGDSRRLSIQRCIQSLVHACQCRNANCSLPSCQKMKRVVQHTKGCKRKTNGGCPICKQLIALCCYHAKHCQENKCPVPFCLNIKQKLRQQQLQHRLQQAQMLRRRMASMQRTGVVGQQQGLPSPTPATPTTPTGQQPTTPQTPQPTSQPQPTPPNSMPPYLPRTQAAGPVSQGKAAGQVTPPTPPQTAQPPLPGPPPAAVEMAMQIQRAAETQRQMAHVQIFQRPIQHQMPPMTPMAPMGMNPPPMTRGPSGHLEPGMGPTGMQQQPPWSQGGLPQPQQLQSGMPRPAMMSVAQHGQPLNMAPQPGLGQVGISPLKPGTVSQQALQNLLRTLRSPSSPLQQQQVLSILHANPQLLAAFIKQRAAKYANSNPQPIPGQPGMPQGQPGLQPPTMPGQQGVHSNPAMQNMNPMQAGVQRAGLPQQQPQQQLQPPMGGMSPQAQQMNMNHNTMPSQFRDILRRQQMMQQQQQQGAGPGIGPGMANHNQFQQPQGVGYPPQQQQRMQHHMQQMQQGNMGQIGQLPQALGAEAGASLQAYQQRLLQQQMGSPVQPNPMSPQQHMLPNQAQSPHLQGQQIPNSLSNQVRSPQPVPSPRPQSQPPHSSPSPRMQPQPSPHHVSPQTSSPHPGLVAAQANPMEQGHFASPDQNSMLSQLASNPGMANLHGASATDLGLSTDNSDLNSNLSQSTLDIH

Biological target: Histone acetyltransferase p300 (Homo sapiens, UniProt Q09472)
Assay: Binding affinity to p300 (unknown origin) by SPR assay

In the case of `CO[C@H]1CC[C@H](n2c([C@@H]3CCCC(=O)N3c3ccc(F)c(F)c3)nc3cc(-c4c(C)noc4C)ccc32)CC1` [INOBRODIB], the Kd is reported as 1.7 nM.
